Tested on: relapsed or refractory mantle cell lymphoma (MCL)
Conditions: first cycle

## Nc1cccc2c1CN(C1CCC(=O)NC1=O)C2=O (centres unmarked) [Revlimid®, 3-(4-amino-1-oxo-1,3-dihydro-isoindol-2-yl)-piperidine-2,6-dione]
+ rituximab
  grade 3 or 4 toxicities during the cycle: no grade 3 or 4 toxicities
Revlimid up to 20 mg orally daily for 21 of 28 days + rituximab 375 mg/m^2 iv weekly, seven evaluable patients
  Dose-limiting toxicity (DLT): grade 3 or 4 non-hematologic or grade 4 hematologic toxicity: No DLT was encountered

Source: patent US8741929B2, “Methods using 3-(4-amino-1-oxo-1,3-dihydro-isoindol-2-yl)-piperidine-2,6-dione for treatment of mantle cell lymphomas” (Celgene Corporation, priority 2006, dated 2014)
